Results taken from patent US7282508B2, “Substituted 4-phenyl-4-(1H-imidazol-2-yl)-piperidine derivatives and their use as selective non-peptide delta opioid agonists” (Janssen Pharmaceutica N.V., priority 2001, dated 2007).

Biological target: T1, cloned human δ opioid receptor (Homo sapiens, UniProt P41143)
T1 construct: expressed in transfected cells; host or cells: C6 glioma cells (membrane preparation)
Experiment: Radioligand binding, competitive inhibition of [3H]DPDPE

IC50: 12.6 nM
Structure (SMILES): COCC(=O)N1CCC(c2ccccc2)(c2nccn2Cc2ccc(C(=O)OC)cc2)CC1 [Compound 30]
